Tested on: Human Brain Microvascular Endothelial Cells (HBMEC)
Assay: human Aβ1-42 injury in HBMEC, total length of capillary network
Assay type: cell-based
Conditions: 1 hr pre-treatment at 10 nM, FIG. 2A

VEGF
capillary network compared to amyloid intoxication: +78%

Reference: patent US11291670B2, “Therapeutic approaches for treating Alzheimer disease and related disorders through a modulation of angiogenesis” (PHARNEXT, priority 2008, dated 2022)
